Common to all, as to type: cell-based
For assay [1], the system named is MDA-MB-231 breast cancer cells. In words: MTT cytotoxicity assay, MDA-MB-231. Conditions: SI = IC50 normal cells (Vero)/IC50 cancer cells; ≥5 highly, >2 moderately, <2 non-selective. As to the method: (§1) All newly synthetic compounds were tested for cytotoxicity using a six-dose MTT colorimetric assay on three cancer cell lines; namely, breast cancer cells (MDA-MB-231), colorectal adenocarcinoma cells (HT-29) and renal cancer cells (U-937). […] The cytotoxicity of the tested compounds against the selected cancer cell lines was compared to Methotrexate as a reference drug, and the results are shown in Table 1 as a mean of IC50 values. […] However, renal cancer cells (U-937) were discovered to be the least sensitive.
(§2) Using a six-dose MTT colorimetric assay, all new synthetic compounds were tested for cytotoxicity against three cancer cell lines: MDA-MB-231 breast cancer cells, HT-29 colorectal adenocarcinoma cells, and U-937 renal cancer cells. […]
(§3) The cell lines were supplied by ATCC (American Type Culture Collection). […] The cytotoxic activities of the examined compounds were quantified by inoculating a 96-well tissue culture plate with 1 X 10^5 cells / mL (100 uL/well) and incubating it at 37°C for 24 hours to develop a complete monolayer sheet. […] The optical density was measured at 560 nm, and the background was subtracted at 620 nm. Finally, the IC50 of the test compound in comparison to the reference was calculated using the GraphPad Prism software. […]
In general terms: Tetrazolium dyes change colour on reduction, which living cells bring about.

For assay [2], the system named is HT-29 colorectal adenocarcinoma cells. In words: MTT cytotoxicity assay, HT-29. Conditions: SI = IC50 normal cells (Vero)/IC50 cancer cells. As to the method: as §1, §2, §3
Another assay concerns U-937 renal cancer cells. The assay is described as follows: MTT cytotoxicity assay, U-937.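 Also: Six-dose MTT colorimetric assay on cell monolayers, formazan absorbance read at 560 nm with 620 nm background removed.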 Conditions: SI = IC50 normal cells (Vero)/IC50 cancer cells. As to the method:
All newly synthetic compounds were tested for cytotoxicity using a six-dose MTT colorimetric assay on three cancer cell lines; namely, breast cancer cells (MDA-MB-231), colorectal adenocarcinoma cells (HT-29) and renal cancer cells (U-937). […] The cytotoxicity of the tested compounds against the selected cancer cell lines was compared to Methotrexate as a reference drug, and the results are shown in Table 1 as a mean of IC50 values. […] However, renal cancer cells (U-937) were discovered to be the least sensitive. […]
as §3
PLK1 inhibitory activity, with Volasertib acting as the reference drug. The BRD4 and PLK1 inhibitory assays were carried out in vitro in accordance with the manufacturer's instructions; BRD4 was assessed using AlphaLISA Bromodomain Assay Protocol, and PLK1 kinase was tested using the ADP-Glo™ Kinase Assay Protocol, […]

As for `CN(Cc1cnc2nc(N)nc(N)c2n1)c1ccc(C(=O)N[C@@H](CCC(=O)O)C(=O)O)cc1` [Methotrexate, reference compound], the “Selectivity Indices (SI) MDA-MB-231” value in assay [1] is 3.64. In addition, the “Selectivity Indices (SI) HT-29” value in assay [2] was 10.26. The “Selectivity Indices (SI) U-937” value in the assay with U-937 renal cancer cells is given as 8.33.

Values taken from publication PMC10535864, “Novel Aminopyrimidine-2,4-diones, 2-Thiopyrimidine-4-ones, and 6-Arylpteridines as Dual-Target Inhibitors of BRD4/PLK1: Design, Synthesis, Cytotoxicity, and Computational Studies” (Pharmaceuticals, 2023).
